The values below come from article PMC9233935 (Journal of medicinal chemistry, 2022).

The data set can be described thus: physchem. To be noted: pH 7.4.

For orientation: logD means lipophilicity at a set pH, counting ionised and neutral species. The low end stands for a more hydrophilic compound, the high end for a more lipophilic compound.

`C[C@@H]1CN2c3c(cc4c(N5CC[C@H](O)C5)noc4c3F)CC3(C(=O)NC(=O)NC3=O)[C@H]2[C@H](C)O1` [Compound 8, (2R,4S,4aS)-11-fluoro-8-((S)-3-hydroxypyrrolidin-1-yl)-2,4-dimethyl-1,2,4,4a-tetrahydro-2’H,6H-spiro[isoxazolo[4,5-g][1,4]oxazino[4,3-a]quinoline-5,5’-pyrimidine]-2’,4’,6’(1’H,3’H)-trione] registered a logD at 3 h of 1.4.
The compound `C[C@@H]1CN2c3c(cc4c(OC[C@@H]5CCC(=O)N5)noc4c3F)CC3(C(=O)NC(=O)NC3=O)[C@H]2[C@H](C)O1` [Compound 23, (2R,4S,4aS)-11-fluoro-2,4-dimethyl-8-(((S)-5-oxopyrrolidin-2-yl)methoxy)-1,2,4,4a-tetrahydro-2’H,6H-spiro[isoxazolo[4,5-g][1,4]oxazino[4,3-a]quinoline-5,5’-pyrimidine]-2’,4’,6’(1’H,3’H)-trione] came in with a logD at 3 h of 1.4.
